Here are results for 5 substances from patent US20190298846A1, “CELL TARGETING CONJUGATES” (LinXis B.V., priority 2016, published 2019).

For orientation: IC50 means the concentration at which inhibition is half-maximal.

One test concerns SK-BR-3. The test can be described thus: In vitro cell viability assay ([…] BLUE). The format is cell-based. The procedure:
(§1) BLUE® Assay (Promega). Before starting the assay, the AF-Lx and AF-Mal were quenched by incubation the compounds with 1 mol equiv. thiourea (2 hours, 37° C.) and n-acetyl-cysteine (30 minutes, 0° C.), respectively. The cells were trypsinized and plated in 96-well, flat-bottomed, tissue culture plates at day 0. On day 1, from the above mentioned compounds serial dilution series (9×4-fold dilutions) were made starting from 10 or 1000 nM (depending on type of cells and compounds) and added to the cells (in case of ADCs, concentration of the mAb was used). On day 5, the […] BLUE® reagent was added and incubated for 2 hours at 37° C., and viable cells were measured with a TeCan plate reader (Tecan Group Ltd.) at 560EX/590EM nm. […] The data were analyzed with Graphpad Prism 5 software.

The next test deals with MDA-MB-231. Description: In vitro cell viability assay ([…] BLUE). The note with it: MDA-MB-231, HER2-negative. The class given is cell-based. The procedure:
as §1

The next test relates to BT-474. The test can be described thus: In vitro cell viability assay ([…] BLUE). The format is cell-based. On the procedure: as §1
A further test has as its system JIMT-1. Description: In vitro cell viability assay ([…] BLUE). The format is cell-based. The note with it: JIMT-1, T-DM1-resistant. On the procedure:
as §1

The subject of another test is NCI-N87. The test can be described thus: In vitro cell viability assay ([…] BLUE). The format is cell-based. The note with it: concentration of the mAb for ADCs, day 5 readout. On the procedure: as §1
In a further test the test system is SKOV-3. The test can be described thus: In vitro cell viability assay ([…] BLUE). The format is cell-based. On the procedure: as §1
Another test deals with JIMT-1 tumors. Description: In vivo therapy study, JIMT-1 xenografts. Also noted: species or system nude mice. The note with it: for mice that survived the study: 15 mg/kg, day 125; for tumor growth response, in words: single bolus injection (15 mg/kg; AF conjugates 15 and 30 mg/kg), follow-up to day 125. The procedure:
(§2) Body weight was measured three times per week and MTD was reached when weight loss was >10% compared with the control mice. […] For this purpose, seven groups of 8 or 9 mice with established NCI-N87 or JIMT-1 xenografts in both flanks were used. […] All mice received an i.p. bolus injection. In the study with the NCI-N87 tumors, Group 1 was the control group and received 100 μL of saline solution. […] In the study with the JIMT-1 tumors, Group 1 was the control group and received 100 μL of saline solution. […] Body weight and tumor volume were measured three times per week up to 4 months after end of treatment.

The subject of the next test is NCI-N87 tumors. The test can be described thus: In vivo therapy study, NCI-N87 xenografts. Also noted: species or system nude mice. The note with it: single bolus injection 15 mg/kg. On the procedure: as §2
Test [1] deals with glutaraldehyde-fixed SKOV cells. Description: Binding assay (immunoreactivity, Lindmo). The note with it: after conjugation and labelling with 89Zr; comparison of both conjugates. On the procedure:
After overnight incubation at 4° C., the cell suspension was centrifuged and the specific binding calculated as the ratio of cell-bound radioactivity to the total amount of radioactivity in the assay. This was corrected for nonspecific binding, as determined with a 500-fold excess of nonradioactive trastuzumab. All binding assays were performed in triplicate.

Regarding AF-Lx-trastuzumab, the half-inhibitory concentration (IC50) was 0.014 nM in the test with SK-BR-3; over 400 nM in the test with MDA-MB-231; 0.161 nM with BT-474; 0.028 nM with JIMT-1; 0.134 nM with NCI-N87; 0.02 nM with SKOV-3. The “mice that survived the study” value in the test with JIMT-1 tumors is given as 7 of the 9. Moreover, the “tumor growth response, in words” value in the test with JIMT-1 tumors is “regressed completely and no regrowth was observed up to end of the experiment at day 125”.

AF-Mal-trastuzumab: the IC50 in the test with SK-BR-3 was 0.038 nM; with MDA-MB-231 it was over 400 nM; in the test with BT-474, 0.193 nM; in the test with JIMT-1, 0.078 nM; with NCI-N87, 0.129 nM; with SKOV-3, 0.036 nM. Also, the “time at which tumors started regrowth” value in the test on NCI-N87 tumors stood at 60 days. Moreover, the “mice that survived the study” value with JIMT-1 tumors was 5 out of 9.

For ^89Zr-DFO-Lx-trastuzumab, in test [1], the “immunoreactive fraction after radiolabeling” value is listed as “similar”.

For ^89Zr-DFO-trastuzumab, the “immunoreactive fraction after radiolabeling” value in [1] is listed as “similar”.

On to “trastuzumab: mAb obtained from the hospital pharmacy”, for which the “tumor growth response, in words” value is on record as “only a delay in growth” in the test on NCI-N87 tumors (follow-up to day 125) and “minimal growth delay” in the test on JIMT-1 tumors.
